The entries are a selection whose mix differs from that of the whole data set. Some tests of the compounds listed are not included; inactive here does not mean inactive elsewhere. Active and inactive are the calls of the source. No stated cut-off is given here; in the data, active means inhibition above about 15%; inconclusive means no clear call, values can overlap the other calls; inactive means below that.

Sequences of proteins named here, by UniProt entry; tags and fusion partners are left off.
UniProt Q9NXA8, whole entry: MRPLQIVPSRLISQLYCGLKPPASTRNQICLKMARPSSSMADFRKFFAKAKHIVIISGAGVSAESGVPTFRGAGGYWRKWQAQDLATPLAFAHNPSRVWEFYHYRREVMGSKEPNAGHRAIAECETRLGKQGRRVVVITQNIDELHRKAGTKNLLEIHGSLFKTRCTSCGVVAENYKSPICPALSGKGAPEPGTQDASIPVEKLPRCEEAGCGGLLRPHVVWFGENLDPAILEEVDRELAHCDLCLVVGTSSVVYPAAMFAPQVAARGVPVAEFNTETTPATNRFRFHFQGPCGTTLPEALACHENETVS

This assay concerns the target NAD-dependent protein deacylase sirtuin-5, mitochondrial (Homo sapiens) (UniProt Q9NXA8). As to the kind of experiment: SIRT5 desuccinylase inhibitors, primary screen, biochemical, fluorescence imaging, single point, set 5 (AID 652115). Conditions: Purified SirT5, succinyl-peptide AMC, trypsin-coupled fluorescence; at 15 µM; active compounds read high.
As for `Cc1ccc(C(=O)NCC2(N3CCCCC3)CCCCC2)cc1`, the inhibition (in general, the relative decrease from the control value, in per cent) is inactive: -4.08%.

`CCN(CC)CC(C)C(C)OC(=O)C(O)(c1ccccc1)c1ccccc1` (stereo not given): the inhibition is inactive: 2.76%.

`COc1cc(SC)ccc1C(=O)NCC1(N(C)C)CCCCC1`: the inhibition is inactive: -4.77%.

For `CN1[C@@H]2CC[C@H]1CC(OC(=O)C(O)(c1ccccc1)c1ccccc1)C2` (stereo not given in full), the inhibition is inactive: -2.82%.

As for `O=C(NCC1(N2CCCCC2)CCCCC1)c1cc([N+](=O)[O-])ccc1Cl`, the inhibition was inactive: -0.446%.

As for `COc1ccc(C(=O)NCC2(N(C)C)CCCCC2)cc1`, the inhibition is inactive: 0.384%.

On to `Cc1cc(C(=O)NCC2(N3CCCCC3)CCCCC2)ccc1[N+](=O)[O-]`, for which the inhibition was inactive: -0.932%.

Take `O=C(NCC1(N2CCCCC2)CCCCC1)c1cccc(Br)c1`: the inhibition is inactive: 2.74%.

As for `O=C(NCC1(N2CCCCC2)CCCCC1)c1cc(F)c(F)cc1Cl`, the inhibition is inactive: -13.8%.

In the case of `Cc1ccccc1C(=O)NCC1(N2CCCCC2)CCCCC1`, the inhibition is inactive: -1.98%.

Regarding `CN(C)c1ccc(C(=O)NCC2(N(C)C)CCCCC2)cc1`, the inhibition is inactive: -0.336%.

Take `CN(C)C1CCCC1OC(=O)C(O)(c1ccccc1)c1ccccc1` (stereo not given): the inhibition was inactive: 0.926%.

Turning to `O=C(NCC1(N2CCCCC2)CCCCC1)c1cccc(Cl)c1`, the inhibition was inactive: 1.04%.

In the case of `COc1cccc(C(=O)NCC2(N3CCCCC3)CCCCC2)c1`, the inhibition is inactive: 10.4%.

`COc1ccc(Cl)cc1C(=O)NCC1(N(C)C)CCCCC1`: the inhibition is inactive: 0.491%.

With `COc1cc(C(=O)NCC2(N(C)C)CCCCC2)c([N+](=O)[O-])cc1OC`, the inhibition was inactive: 0.837%.

For the compound `CN(C)C1(CNC(=O)c2ccc(Br)cc2)CCCCC1`, the inhibition is inactive: -2.16%.

`CC(C)Oc1ccc(C(=O)NCC2(N(C)C)CCCCC2)cc1`: the inhibition is inactive: -2.59%.

On to `O=C(OCCN1CCCC1)C(O)(c1ccccc1)c1ccccc1`, for which the inhibition was inactive: -5.33%.

Consider `COc1ccc(Br)c(C(=O)NCC2(N3CCCCC3)CCCCC2)c1`, for which the inhibition is inactive: -1.58%.

For the origin of these results see PubChem BioAssay AID652115 (Broad Institute, 2013).
